# Laboratory results taken from PubChem BioAssay AID602281 (The Scripps Research Institute Molecular Screening Center, 2012).
# The chains behind the UniProt entries cited, without tags or fusion partners.
# UniProt Q00G26, whole entry, looked up: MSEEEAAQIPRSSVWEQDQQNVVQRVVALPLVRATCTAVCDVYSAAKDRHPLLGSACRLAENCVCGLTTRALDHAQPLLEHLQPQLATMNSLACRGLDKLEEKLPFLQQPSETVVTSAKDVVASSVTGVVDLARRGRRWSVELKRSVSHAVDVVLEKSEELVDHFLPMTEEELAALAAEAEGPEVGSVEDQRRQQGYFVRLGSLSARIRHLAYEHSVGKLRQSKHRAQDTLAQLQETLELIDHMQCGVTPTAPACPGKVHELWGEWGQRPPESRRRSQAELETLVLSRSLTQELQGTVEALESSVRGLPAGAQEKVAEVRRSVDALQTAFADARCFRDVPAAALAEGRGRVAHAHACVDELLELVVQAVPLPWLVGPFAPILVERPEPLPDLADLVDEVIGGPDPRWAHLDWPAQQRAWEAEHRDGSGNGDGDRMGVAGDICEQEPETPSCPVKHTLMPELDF
# UniProt Q8WTS1, whole entry, looked up: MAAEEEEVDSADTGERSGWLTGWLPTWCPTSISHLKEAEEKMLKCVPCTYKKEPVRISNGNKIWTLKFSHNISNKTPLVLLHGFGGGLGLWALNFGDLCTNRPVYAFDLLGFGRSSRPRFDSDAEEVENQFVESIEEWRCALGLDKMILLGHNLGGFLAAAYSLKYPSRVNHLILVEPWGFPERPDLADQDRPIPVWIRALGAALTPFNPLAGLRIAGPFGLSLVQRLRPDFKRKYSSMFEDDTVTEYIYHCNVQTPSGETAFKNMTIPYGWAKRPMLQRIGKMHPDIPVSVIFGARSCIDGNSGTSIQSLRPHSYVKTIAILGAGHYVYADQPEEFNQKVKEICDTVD
# Only a part is listed here, and it is no random draw. The source made the active and inactive calls.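 Rule for the calls: active = inhibition above the mean inhibition across every tested compound plus 3 SD (cut at about 22% in these data); inactive = the rest.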
# Target: Perilipin-5 (Homo sapiens) + 1-acylglycerol-3-phosphate O-acyltransferase ABHD5 (Homo sapiens) (UniProt Q00G26+Q8WTS1)
# Assay: blockers of ABHD5 binding to perilipin-5 – cell lysate, split luciferase complementation, luminescence, primary screen (AID 602281);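 note: 0% = DMSO only wells and the 100% control is not disclosed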
# Settings: Split G. princeps luciferase complementation, 4 h, at 4 µM, hits give high values
row,Compound,inhibition
1,O=C(NCC1(N2CCCCC2)CCCCC1)c1ccc(OC(F)F)cc1,inactive: 0.71%
2,CC(C)(C)n1nnnc1C(c1ccccc1OC(F)(F)F)N1CCC(n2c(=O)[nH]c3ccccc32)CC1 (stereo not drawn),inactive: 2.8%
3,CSc1ccc(C(=O)NCC2(N3CCOCC3)CCCCC2)cc1,inactive: -5.85%
4,O=C(NCC1(N2CCCCC2)CCCCC1)c1cccc([N+](=O)[O-])c1,inactive: 3.47%
5,O=c1[nH]c2ccccc2n1C1CCN(C(c2ccccc2OC(F)(F)F)c2nnnn2C2CCCC2)CC1 (stereo not drawn),inactive: -6.07%
6,N#CC1(Nc2ccccc2)CCN(CCc2ccccc2)CC1,inactive: 0.54%
7,CCN1CCC(Nc2ccc(Cl)cc2)CC1,inactive: -4.57%
8,O=C(NCC1(N2CCCCC2)CCCCC1)c1cccc(C(F)(F)F)c1,inactive: -1.98%
9,COc1ccc(NC2CCN(C(=O)OC(C)(C)C)CC2)cc1,inactive: 0.78%
10,CC(C)c1ccc(C(=O)NCC2(N3CCOCC3)CCCCC2)cc1,inactive: -4.85%
11,CN1CCN(CCOC(=O)C(O)(c2ccccc2)c2ccccc2)CC1,inactive: -3.77%
12,CCCCn1nnnc1C(c1cccc2ccccc12)N1CCC(n2c(=O)[nH]c3ccccc32)CC1 (stereo not drawn),inactive: 10%
13,O=C(NCC1(N2CCOCC2)CCCCC1)c1cc(=O)[nH]c2ccccc12,inactive: 4.09%
14,COc1cc(C(=O)NCC2(N3CCCCC3)CCCCC2)ccc1OC(F)F,inactive: 3.08%
15,CN(C)c1cccc(C(=O)NCC2(N3CCCCC3)CCCCC2)c1,inactive: -10%
16,COc1ccc(CN(CCCl)CCCl)cc1Cl,inactive: 3.82%
17,CC(C)c1ccc(NC2CCN(C(=O)OC(C)(C)C)CC2)cc1,inactive: -3.83%
18,CCCCn1nnnc1C(c1ccccc1OC(F)(F)F)N1CCC(n2c(=O)[nH]c3ccccc32)CC1 (stereo not drawn),inactive: -5.08%
19,CCCCn1nnnc1C(c1ccnc2ccccc12)N1CCC(n2c(=O)[nH]c3ccccc32)CC1 (stereo not drawn),inactive: 4.91%
20,CCC(c1nnnn1C(C)(C)C)N1CCC(n2c(=O)[nH]c3ccccc32)CC1 (stereo not drawn),inactive: -0.4%
21,O=C(NCC1(N2CCOCC2)CCCCC1)c1cc(F)c(F)cc1Cl,inactive: 10.3%
22,COc1cc(OC)c(C(=O)NCC2(N(C)C)CCCCC2)cc1OC,inactive: 3.62%

row,Compound,inhibition
1,CN1CCC(Nc2cccc(F)c2)CC1,inactive: 0.03%
2,O=C(NCC1(N2CCCCC2)CCCCC1)c1cncc(Br)c1,inactive: -0.32%
3,CCCOc1ccc(C(=O)NCC2(N(C)C)CCCCC2)cc1OC,inactive: -9.77%
4,Cc1ccc(C(=O)NCC2(N(C)C)CCCCC2)o1,inactive: 4.57%
5,COc1ccc(C(c2nnnn2C2CCCC2)N2CCC(n3c(=O)[nH]c4ccccc43)CC2)cc1 (stereo not drawn),inactive: 3.96%
6,CCCCn1nnnc1C(CC)N1CCC(n2c(=O)[nH]c3ccccc32)CC1 (stereo not drawn),inactive: 2.82%
7,O=C(NCC1(N2CCCCC2)CCCCC1)c1cccs1,inactive: 3.9%
8,CCCCn1nnnc1C(c1cccs1)N1CCC(n2c(=O)[nH]c3ccccc32)CC1 (stereo not drawn),inactive: 10.3%
9,O=C(NCC1(N2CCCCC2)CCCCC1)c1ccc(=O)[nH]c1,inactive: -7.95%
10,COc1ccc(C(=O)NCC2(N3CCCCC3)CCCCC2)c(OC)c1OC,inactive: 1.4%
11,CC(C)(C)OC(=O)N1CCC(N(C(=O)c2ccccc2)c2ccc(F)cc2)CC1,inactive: 1.39%
12,CCC(c1nnnn1C1CCCC1)N1CCC(n2c(=O)[nH]c3ccccc32)CC1 (stereo not drawn),inactive: 4.81%
13,COc1ccc(C(=O)NCC2(N3CCCCC3)CCCCC2)cc1,inactive: 1.77%
14,Cc1cccc(NC2(C#N)CCN(Cc3ccccc3)CC2)c1,inactive: -0.36%
15,CSc1ccccc1C(=O)NCC1(N2CCCCC2)CCCCC1,inactive: -4.63%
16,O=C(NCC1(N2CCOCC2)CCCCC1)c1cc2ccccc2o1,inactive: 0.94%
17,Cc1cc(C)cc(N(C(=O)c2ccccc2)C2CCN(C(=O)OC(C)(C)C)CC2)c1,inactive: 0.91%
18,O=C(NCC1(N2CCCCC2)CCCCC1)c1ccc(Cl)nc1,inactive: 3.44%
19,O=c1[nH]c2ccccc2n1C1CCN(C(c2ccccc2OC(F)(F)F)c2nnnn2C2CCCCC2)CC1 (stereo not drawn),inactive: 0.81%
20,CCCCn1nnnc1C(c1ccc(OC)cc1)N1CCC(n2c(=O)[nH]c3ccccc32)CC1 (stereo not drawn),inactive: 0.68%
21,CCOC(=O)N1CCC(Nc2ccc(OC)cc2)CC1,inactive: -3.51%
22,COc1ccc(Cl)cc1C(=O)NCC1(N2CCOCC2)CCCCC1,inactive: -8.18%

row,Compound,inhibition
1,N#CC1(Nc2ccccc2)CCN(Cc2ccccc2)CC1,inactive: 1.29%
2,O=C(NCC1(N2CCCCC2)CCCCC1)c1ccc(Cl)s1,inactive: 9.08%
3,O=c1[nH]c2ccccc2n1C1CCN(C(c2cc3ccccc3o2)c2nnnn2C2CCCCC2)CC1 (stereo not drawn),inactive: 0.99%
4,O=C(OC1CN2CCC1CC2)C1c2ccccc2Oc2ccccc21 (stereo not drawn),inactive: -1.05%
5,CCOc1ccc(C)cc1CN(CCCl)CCCl,inactive: 3.8%
6,O=C1CCN(Cc2ccccc2)CC1,inactive: 6.21%
7,CC(C)(C)n1nnnc1C(c1ccccc1)N1CCC(n2c(=O)[nH]c3ccccc32)CC1 (stereo not drawn),inactive: 0.52%
8,CCOC(=O)N1CCC(Nc2ccc(F)cc2)CC1,inactive: -3.77%
9,COc1ccc(NC2CCN(CCc3ccccc3)CC2)c(OC)c1,inactive: 2.06%
10,CCCCOc1ccc(C(=O)NCC2(N3CCOCC3)CCCCC2)cc1,inactive: 7.76%
11,O=P1(N(CCCl)CCCl)SCCCS1,inactive: 3.32%
12,CCCCn1nnnc1C(c1cc2ccccc2o1)N1CCC(n2c(=O)[nH]c3ccccc32)CC1 (stereo not drawn),inactive: 2.53%
13,O=C(NCC1(N2CCCCC2)CCCCC1)c1ccc(F)cc1,inactive: -10.1%
14,O=c1[nH]c2ccccc2n1C1CCN(C(c2ccccc2)c2nnnn2C2CCCCC2)CC1 (stereo not drawn),inactive: -5.25%
15,O=c1[nH]c2ccccc2n1C1CCN(C(c2cccc3ccccc23)c2nnnn2C2CCCC2)CC1 (stereo not drawn),inactive: -2.51%
16,CCOC(=O)N1CCC(Nc2cccc(C)c2)CC1,inactive: -4.97%
17,COc1cc(C(=O)NCC2(N(C)C)CCCCC2)ccc1OC(F)F,inactive: -9.42%
18,COc1cc(OC)cc(C(=O)NCC2(N3CCCCC3)CCCCC2)c1,inactive: -0.85%
19,O=c1[nH]c2ccccc2n1C1CCN(C(c2ccnc3ccccc23)c2nnnn2C2CCCCC2)CC1 (stereo not drawn),inactive: -0.11%
20,CCC(c1nnnn1C1CCCCC1)N1CCC(n2c(=O)[nH]c3ccccc32)CC1 (stereo not drawn),inactive: 11.6%
21,COc1cccc(C(c2nnnn2C2CCCCC2)N2CCC(n3c(=O)[nH]c4ccccc43)CC2)c1OC (stereo not drawn),inactive: 2.83%
22,CC(=O)N(c1ccccc1)C1CCNCC1,inactive: 3.46%

row,Compound,inhibition
1,Cc1ccc(NC2(C#N)CCN(Cc3ccccc3)CC2)cc1,inactive: 4.5%
2,Fc1ccccc1NC1CCN(Cc2ccccc2)CC1,inactive: 4.79%
3,Cc1ccc(C(=O)NCC2(N3CCCCC3)CCCCC2)o1,inactive: 4.37%
4,COc1ccc(C(c2nnnn2C2CCCCC2)N2CCC(n3c(=O)[nH]c4ccccc43)CC2)cc1 (stereo not drawn),inactive: -2.56%
5,CCN1CCC(Nc2cccc(F)c2)CC1,inactive: -2.57%
6,CC(C)(C)n1nnnc1C(c1ccnc2ccccc12)N1CCC(n2c(=O)[nH]c3ccccc32)CC1 (stereo not drawn),inactive: 13.3%
7,Cc1ccccc1NC1(C#N)CCN(Cc2ccccc2)CC1,inactive: -4.35%
8,CN(C)c1ccc(C(=O)NCC2(N3CCCCC3)CCCCC2)cc1,inactive: 3.13%
9,Cn1c(=O)[nH]cc(N(CCCl)CCCl)c1=O,inactive: -20.6%
10,O=C(NCC1(N2CCCCC2)CCCCC1)c1ccco1,inactive: 3.33%
11,CN1CCC(Nc2ccc(F)c(Cl)c2)CC1,inactive: -4.74%
12,CCOc1ncccc1C(=O)NCC1(N2CCOCC2)CCCCC1,inactive: 2.26%
13,O=c1[nH]c2ccccc2n1C1CCN(C(c2cc3ccccc3o2)c2nnnn2C2CCCC2)CC1 (stereo not drawn),inactive: 0.82%
14,CCCOc1ccc(C(=O)NCC2(N(C)C)CCCCC2)cc1,inactive: -1.51%
15,NN(c1ccccc1)C1CCN(CCc2ccccc2)CC1,inactive: -12.4%
16,O=C(O)C1(Nc2ccccc2)CCN(Cc2ccccc2)CC1,inactive: 0.05%
17,CC(C)(C)OC(=O)N1CCC(Nc2ccccc2)CC1,inactive: 0.95%
18,CCC(CO)(C(=O)OC1CN2CCC1CC2)c1ccccc1 (stereo not drawn),inactive: 3.99%
19,COc1cccc(C(=O)N(c2cc(C)cc(C)c2)C2CCN(C(=O)OC(C)(C)C)CC2)c1,inactive: -7.89%
20,COc1cccc(C(c2nnnn2C2CCCC2)N2CCC(n3c(=O)[nH]c4ccccc43)CC2)c1OC (stereo not drawn),inactive: 5.37%
21,COc1cc(OC)cc(C(=O)NCC2(N3CCOCC3)CCCCC2)c1,inactive: 4.94%
22,CN1CCC(Nc2ccc(Cl)cc2)CC1,inactive: 4.23%

row,Compound,inhibition
1,O=C(NCC1(N2CCOCC2)CCCCC1)c1cc(Br)ccc1Cl,inactive: 0.36%
2,COc1cc(C(=O)NCC2(N3CCOCC3)CCCCC2)cc(OC)c1C,inactive: -8.28%
3,CCCCn1nnnc1C(c1ccccc1)N1CCC(n2c(=O)[nH]c3ccccc32)CC1 (stereo not drawn),inactive: 7.93%
4,O=c1[nH]c2ccccc2n1C1CCN(C(c2ccnc3ccccc23)c2nnnn2C2CCCC2)CC1 (stereo not drawn),inactive: 0.57%
5,COc1ccc(C(=O)NCC2(N3CCOCC3)CCCCC2)cc1OC,inactive: 9.25%
6,O=c1[nH]c2ccccc2n1C1CCN(C(c2cccs2)c2nnnn2C2CCCCC2)CC1 (stereo not drawn),inactive: -1.89%
7,N/C(=N\O)c1c(N)no[n+]1[O-],inactive: 2.04%
8,CCOC(=O)N1CCC(Nc2ccc(C)cc2)CC1,inactive: 0.51%
9,COc1cccc(C(c2nnnn2C(C)(C)C)N2CCC(n3c(=O)[nH]c4ccccc43)CC2)c1OC (stereo not drawn),inactive: 8.8%
10,CCCCn1nnnc1C(c1cccc(OC)c1OC)N1CCC(n2c(=O)[nH]c3ccccc32)CC1 (stereo not drawn),inactive: 2.61%
11,O=c1[nH]c2ccccc2n1C1CCN(C(c2cccs2)c2nnnn2C2CCCC2)CC1 (stereo not drawn),inactive: 10.4%
12,O=C(OC1CN2CCC1CC2)C1c2ccccc2C=Cc2ccccc21 (stereo not drawn),inactive: 1.45%
13,CC(C)(C)OC(=O)N1CCC(N(C(=O)c2ccccc2)c2ccc(Cl)cc2)CC1,inactive: -8.79%
14,N#Cc1ccc(C(=O)NCC2(N3CCCCC3)CCCCC2)cc1,inactive: 5.39%
15,CCCN1CCC(Nc2cc(OC)cc(OC)c2)CC1,inactive: 0.61%
16,O=c1[nH]c2ccccc2n1C1CCN(C(c2ccccc2)c2nnnn2C2CCCC2)CC1 (stereo not drawn),inactive: 3.14%
17,Cc1cc(N(CCCl)CCCl)ccc1C=O,inactive: -4.81%
18,c1ccc(CN2CCC(Nc3ccccc3)CC2)cc1,inactive: 0.33%
19,CN(C)C1(CNC(=O)c2cccc(C#N)c2)CCCCC1,inactive: 6.25%
20,CC(C)(C)n1nnnc1C(c1cccc2ccccc12)N1CCC(n2c(=O)[nH]c3ccccc32)CC1 (stereo not drawn),inactive: 3.6%
